Consider 1 compound from ChEMBL document CHEMBL1139709, “6-Hydroxy- and 6-methoxy-beta-carbolines as acetyl- and butyrylcholinesterase inhibitors” (Bioorg Med Chem Lett, 2006).

By UniProt entry, the sequences of proteins in these tests, tags left out.
UniProt P06276, whole entry: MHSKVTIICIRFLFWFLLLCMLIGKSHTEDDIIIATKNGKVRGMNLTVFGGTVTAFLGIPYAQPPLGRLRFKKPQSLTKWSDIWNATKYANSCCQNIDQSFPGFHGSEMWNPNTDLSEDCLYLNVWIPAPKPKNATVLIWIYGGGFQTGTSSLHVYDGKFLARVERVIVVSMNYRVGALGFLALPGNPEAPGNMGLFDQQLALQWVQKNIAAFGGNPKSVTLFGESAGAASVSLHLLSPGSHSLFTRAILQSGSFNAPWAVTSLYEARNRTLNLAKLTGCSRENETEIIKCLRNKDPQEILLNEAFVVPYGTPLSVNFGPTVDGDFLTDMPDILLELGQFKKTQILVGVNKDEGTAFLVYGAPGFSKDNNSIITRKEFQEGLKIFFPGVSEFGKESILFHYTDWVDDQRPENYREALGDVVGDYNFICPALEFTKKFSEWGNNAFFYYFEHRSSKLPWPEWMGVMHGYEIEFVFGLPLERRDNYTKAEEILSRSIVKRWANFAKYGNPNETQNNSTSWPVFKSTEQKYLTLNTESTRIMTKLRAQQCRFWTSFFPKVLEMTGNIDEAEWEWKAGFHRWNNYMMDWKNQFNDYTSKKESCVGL

The structures appear in SMILES notation.

This experiment deals with Cholinesterase (Homo sapiens, UniProt P06276). The experiment can be described thus: Inhibition of BChE.

`CCN(C)C(=O)Oc1cccc([C@H](C)N(C)C)c1` [RIVASTIGMINE] registered a half-inhibitory concentration (IC50) of 54 µM. This lies in the double-digit micromolar range.

Usually IC50 stands for the concentration that gives 50% inhibition.
